Several values for one entry are separate records, joined by “and”; a condition that tells them apart may be missing. Identical values can stand only once.

Drawing on PMC2855817 (Biochemistry, 2010), this text covers Km and kcat/Km for one substance.

The data set has as its system COC(C)=O. The data set can be described thus: purified protein. The following applies: pH 7.2, 5 mM BES, 23 °C.

In the case of “PFE (Pseudomonas fluorescens esterase; aryl esterase) (Pseudomonas fluorescens; L30P)”, the Km (commonly the concentration of substrate that gives half-maximal velocity) is 43 ± 3 mM and 50 ± 5 mM; the catalytic efficiency (kcat/Km) (in general, the second-order rate constant that governs catalysis at low substrate concentration) was 600 M⁻¹ s⁻¹ and 200 M⁻¹ s⁻¹.
